{"source": "patent US11484595B2", "about": "“Carrier molecule compositions and related methods” (JYSK Skin Solutions PTE .LTD., priority 2014, dated 2022)", "experiment": "Transcutaneous flux through porcine skin grafts; receptor fluid read by spectrophotometer"}
{"substance": "FFFIL VFGGGKKRPKPG [SK-1]", "values": [{"measurement": "calculated transcutaneous flux of the biologically active molecules and carrier molecules", "setting": "absorbance compared with standards, micelle base, porcine skin grafts", "result": 1.8, "unit": "%"}, {"measurement": "absorbance of receptor fluid (Table 2)", "setting": "porcine skin grafts 0.045-0.055 inches, n=5, single application in CETAPHIL moisturizer micelle base with alkaline phosphatase conjugate (150 kD) and salicylate, receptor fluid 0.9% NaCl collected 14-16 hours", "result": 2.729}]}
